From article PMC12836348, “Alanine Mutagenesis Identifies Specific Amino Acids of Nemertide Alpha‑1 Activity and Its Binding to Target Receptors” (Journal of Natural Products, 2025)

Sequences of proteins named here, by UniProt entry; tags and fusion partners are left off.
UniProt P04775, whole entry: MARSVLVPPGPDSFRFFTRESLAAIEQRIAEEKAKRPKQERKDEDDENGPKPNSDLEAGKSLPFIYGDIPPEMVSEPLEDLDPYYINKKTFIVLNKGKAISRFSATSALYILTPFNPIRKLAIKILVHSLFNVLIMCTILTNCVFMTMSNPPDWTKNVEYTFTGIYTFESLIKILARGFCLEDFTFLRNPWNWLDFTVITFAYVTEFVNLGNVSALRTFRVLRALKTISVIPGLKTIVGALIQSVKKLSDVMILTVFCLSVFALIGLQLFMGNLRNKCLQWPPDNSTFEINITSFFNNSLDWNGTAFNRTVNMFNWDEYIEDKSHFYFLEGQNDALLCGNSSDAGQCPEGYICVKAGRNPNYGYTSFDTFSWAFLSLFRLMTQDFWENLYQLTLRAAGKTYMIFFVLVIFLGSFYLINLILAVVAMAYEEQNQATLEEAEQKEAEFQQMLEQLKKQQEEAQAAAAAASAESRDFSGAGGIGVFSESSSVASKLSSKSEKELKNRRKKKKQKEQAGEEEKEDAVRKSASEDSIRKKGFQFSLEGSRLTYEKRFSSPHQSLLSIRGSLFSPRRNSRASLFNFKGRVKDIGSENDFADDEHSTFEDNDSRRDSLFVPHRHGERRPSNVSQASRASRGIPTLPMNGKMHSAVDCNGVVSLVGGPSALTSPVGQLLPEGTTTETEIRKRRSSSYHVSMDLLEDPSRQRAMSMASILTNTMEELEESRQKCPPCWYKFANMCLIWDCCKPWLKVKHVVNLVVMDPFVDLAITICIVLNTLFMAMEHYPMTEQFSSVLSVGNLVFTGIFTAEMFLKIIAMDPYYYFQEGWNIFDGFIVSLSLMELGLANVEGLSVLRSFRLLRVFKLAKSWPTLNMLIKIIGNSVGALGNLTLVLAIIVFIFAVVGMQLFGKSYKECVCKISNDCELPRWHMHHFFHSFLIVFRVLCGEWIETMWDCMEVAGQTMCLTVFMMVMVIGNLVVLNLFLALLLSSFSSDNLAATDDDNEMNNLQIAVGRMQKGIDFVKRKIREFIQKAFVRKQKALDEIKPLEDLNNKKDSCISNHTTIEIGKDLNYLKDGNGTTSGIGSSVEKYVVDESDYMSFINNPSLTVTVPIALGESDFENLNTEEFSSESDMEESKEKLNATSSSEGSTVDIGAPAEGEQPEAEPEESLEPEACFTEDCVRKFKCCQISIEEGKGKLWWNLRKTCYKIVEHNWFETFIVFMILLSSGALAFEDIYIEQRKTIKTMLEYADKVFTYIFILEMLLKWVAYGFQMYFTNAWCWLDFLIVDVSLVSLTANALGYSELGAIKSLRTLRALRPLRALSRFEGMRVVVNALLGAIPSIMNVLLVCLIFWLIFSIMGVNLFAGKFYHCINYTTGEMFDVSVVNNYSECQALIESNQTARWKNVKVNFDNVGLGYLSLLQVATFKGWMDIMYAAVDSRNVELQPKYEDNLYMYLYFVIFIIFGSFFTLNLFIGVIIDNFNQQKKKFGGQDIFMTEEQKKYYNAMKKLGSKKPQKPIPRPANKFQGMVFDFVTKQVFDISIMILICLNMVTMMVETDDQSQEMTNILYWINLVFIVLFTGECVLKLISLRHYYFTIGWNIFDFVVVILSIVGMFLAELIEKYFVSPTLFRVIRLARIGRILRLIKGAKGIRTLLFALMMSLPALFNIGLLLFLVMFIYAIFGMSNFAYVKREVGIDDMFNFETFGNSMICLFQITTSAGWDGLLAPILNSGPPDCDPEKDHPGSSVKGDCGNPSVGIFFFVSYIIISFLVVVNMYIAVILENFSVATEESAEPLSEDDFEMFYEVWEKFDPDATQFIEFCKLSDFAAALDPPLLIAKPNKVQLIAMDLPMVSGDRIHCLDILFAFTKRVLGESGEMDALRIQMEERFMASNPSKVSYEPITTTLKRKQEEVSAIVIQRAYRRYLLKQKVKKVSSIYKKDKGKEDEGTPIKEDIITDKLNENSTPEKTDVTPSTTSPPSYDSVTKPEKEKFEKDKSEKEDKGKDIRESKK
UniProt Q9UQD0, whole entry: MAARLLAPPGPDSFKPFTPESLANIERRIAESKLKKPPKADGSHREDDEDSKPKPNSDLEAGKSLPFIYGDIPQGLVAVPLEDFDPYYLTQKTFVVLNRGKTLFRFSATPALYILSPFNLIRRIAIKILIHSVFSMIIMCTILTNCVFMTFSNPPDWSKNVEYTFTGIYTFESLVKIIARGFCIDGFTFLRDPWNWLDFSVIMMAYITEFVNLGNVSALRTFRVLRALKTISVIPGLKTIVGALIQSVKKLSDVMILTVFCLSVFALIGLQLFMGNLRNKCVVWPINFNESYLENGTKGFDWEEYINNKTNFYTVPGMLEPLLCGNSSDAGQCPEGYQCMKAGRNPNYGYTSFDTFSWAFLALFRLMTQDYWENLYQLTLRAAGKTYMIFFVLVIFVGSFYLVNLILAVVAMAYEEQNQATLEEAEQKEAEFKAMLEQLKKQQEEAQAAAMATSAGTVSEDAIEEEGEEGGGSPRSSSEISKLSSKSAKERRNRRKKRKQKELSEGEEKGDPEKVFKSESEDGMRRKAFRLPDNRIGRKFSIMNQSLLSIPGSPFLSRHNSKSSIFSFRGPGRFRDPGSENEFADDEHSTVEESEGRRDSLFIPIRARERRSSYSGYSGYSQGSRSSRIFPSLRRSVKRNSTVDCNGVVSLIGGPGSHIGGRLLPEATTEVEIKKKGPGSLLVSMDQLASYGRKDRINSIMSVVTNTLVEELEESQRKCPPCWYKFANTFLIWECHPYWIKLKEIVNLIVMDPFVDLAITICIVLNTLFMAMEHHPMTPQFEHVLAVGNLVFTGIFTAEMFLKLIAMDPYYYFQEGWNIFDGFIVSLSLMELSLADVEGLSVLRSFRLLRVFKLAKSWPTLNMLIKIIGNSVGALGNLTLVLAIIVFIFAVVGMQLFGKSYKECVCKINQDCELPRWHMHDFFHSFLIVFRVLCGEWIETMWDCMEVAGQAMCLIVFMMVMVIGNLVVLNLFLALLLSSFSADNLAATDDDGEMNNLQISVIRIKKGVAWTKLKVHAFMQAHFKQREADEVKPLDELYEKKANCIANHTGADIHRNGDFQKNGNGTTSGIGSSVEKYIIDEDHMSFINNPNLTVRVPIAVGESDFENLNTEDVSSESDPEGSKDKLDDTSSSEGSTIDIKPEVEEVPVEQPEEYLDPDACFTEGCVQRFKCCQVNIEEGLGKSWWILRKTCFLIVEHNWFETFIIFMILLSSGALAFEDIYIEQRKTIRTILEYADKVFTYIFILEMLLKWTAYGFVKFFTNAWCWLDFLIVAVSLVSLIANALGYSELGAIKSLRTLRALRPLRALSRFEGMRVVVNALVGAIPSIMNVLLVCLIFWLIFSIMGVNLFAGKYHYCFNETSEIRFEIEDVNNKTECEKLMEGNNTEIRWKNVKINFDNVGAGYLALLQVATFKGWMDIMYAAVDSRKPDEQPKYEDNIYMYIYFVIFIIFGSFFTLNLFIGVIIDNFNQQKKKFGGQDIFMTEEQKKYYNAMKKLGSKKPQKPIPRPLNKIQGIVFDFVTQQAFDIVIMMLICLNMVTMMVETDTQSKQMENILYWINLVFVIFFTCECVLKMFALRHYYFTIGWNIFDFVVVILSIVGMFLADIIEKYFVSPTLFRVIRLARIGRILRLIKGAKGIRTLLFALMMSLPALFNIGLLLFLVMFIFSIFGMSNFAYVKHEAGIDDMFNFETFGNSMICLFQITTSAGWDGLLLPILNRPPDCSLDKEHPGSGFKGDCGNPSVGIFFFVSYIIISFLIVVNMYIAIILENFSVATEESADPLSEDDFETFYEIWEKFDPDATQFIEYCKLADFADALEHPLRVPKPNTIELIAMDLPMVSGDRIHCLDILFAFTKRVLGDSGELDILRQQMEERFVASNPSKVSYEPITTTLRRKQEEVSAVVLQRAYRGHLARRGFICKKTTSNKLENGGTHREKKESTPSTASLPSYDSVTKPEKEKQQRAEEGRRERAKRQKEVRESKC
UniProt Q14524, whole entry: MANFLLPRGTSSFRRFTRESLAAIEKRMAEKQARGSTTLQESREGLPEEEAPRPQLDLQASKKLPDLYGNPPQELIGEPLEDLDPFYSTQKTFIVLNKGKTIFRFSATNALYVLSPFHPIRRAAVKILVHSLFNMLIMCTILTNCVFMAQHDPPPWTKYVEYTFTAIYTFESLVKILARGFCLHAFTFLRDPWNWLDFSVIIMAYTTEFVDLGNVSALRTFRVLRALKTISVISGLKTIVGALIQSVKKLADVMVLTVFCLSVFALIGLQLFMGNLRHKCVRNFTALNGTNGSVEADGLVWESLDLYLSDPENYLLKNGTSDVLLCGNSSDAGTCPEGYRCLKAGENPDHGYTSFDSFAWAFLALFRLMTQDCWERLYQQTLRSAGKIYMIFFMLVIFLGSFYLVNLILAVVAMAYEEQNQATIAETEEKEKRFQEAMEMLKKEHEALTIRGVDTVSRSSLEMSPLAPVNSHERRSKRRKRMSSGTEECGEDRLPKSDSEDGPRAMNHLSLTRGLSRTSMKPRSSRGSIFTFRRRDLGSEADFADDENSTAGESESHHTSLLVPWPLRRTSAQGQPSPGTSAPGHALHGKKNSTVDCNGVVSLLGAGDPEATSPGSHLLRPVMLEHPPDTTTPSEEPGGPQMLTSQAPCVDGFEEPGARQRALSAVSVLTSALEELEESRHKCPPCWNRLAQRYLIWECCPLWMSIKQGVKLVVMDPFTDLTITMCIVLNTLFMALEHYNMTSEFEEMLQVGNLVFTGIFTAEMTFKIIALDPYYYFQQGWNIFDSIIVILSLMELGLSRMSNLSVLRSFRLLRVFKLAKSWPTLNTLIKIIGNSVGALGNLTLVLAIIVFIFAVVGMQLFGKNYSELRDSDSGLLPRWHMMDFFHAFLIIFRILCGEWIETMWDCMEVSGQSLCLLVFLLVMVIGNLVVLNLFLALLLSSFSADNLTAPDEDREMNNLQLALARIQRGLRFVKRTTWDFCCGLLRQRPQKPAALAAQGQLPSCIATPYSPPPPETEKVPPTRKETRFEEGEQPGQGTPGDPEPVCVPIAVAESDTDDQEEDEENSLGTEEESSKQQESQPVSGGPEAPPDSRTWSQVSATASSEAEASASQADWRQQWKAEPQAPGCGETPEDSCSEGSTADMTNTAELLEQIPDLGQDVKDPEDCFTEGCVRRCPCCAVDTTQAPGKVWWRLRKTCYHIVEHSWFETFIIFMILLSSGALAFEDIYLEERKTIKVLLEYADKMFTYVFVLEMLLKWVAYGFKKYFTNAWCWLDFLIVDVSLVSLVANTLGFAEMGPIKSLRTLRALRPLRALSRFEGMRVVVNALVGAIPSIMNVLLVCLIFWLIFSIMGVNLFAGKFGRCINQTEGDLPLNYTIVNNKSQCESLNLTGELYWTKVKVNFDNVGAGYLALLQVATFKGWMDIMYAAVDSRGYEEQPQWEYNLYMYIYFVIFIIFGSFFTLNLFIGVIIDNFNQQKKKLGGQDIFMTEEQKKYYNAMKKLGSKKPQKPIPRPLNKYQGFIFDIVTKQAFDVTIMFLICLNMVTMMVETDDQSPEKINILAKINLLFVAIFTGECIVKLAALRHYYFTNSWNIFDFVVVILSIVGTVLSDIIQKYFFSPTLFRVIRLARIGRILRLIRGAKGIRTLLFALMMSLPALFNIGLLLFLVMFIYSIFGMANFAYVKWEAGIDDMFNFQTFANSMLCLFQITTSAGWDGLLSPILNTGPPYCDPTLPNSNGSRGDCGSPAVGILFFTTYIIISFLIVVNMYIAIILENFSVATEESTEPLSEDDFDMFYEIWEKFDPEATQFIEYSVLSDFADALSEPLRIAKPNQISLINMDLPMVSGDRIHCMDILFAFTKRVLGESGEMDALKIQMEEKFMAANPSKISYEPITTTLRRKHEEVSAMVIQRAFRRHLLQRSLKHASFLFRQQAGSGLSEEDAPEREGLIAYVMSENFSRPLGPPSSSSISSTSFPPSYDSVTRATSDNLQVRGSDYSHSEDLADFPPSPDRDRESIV

How the values were obtained:
[1] = tested on: BgNav1; test: Two-electrode voltage clamp, BgNav1 expressed in Xenopus laevis oocytes; format: cell-based, Blattella germanica; conditions: ex vivo, I30ms/Ipeak, Hill fit, n ≥ 3, highest tested concentration 50 μM
[2] = molecular target: T1, rNaV1.2 (Rattus norvegicus, UniProt P04775); test: Two-electrode voltage clamp, Nav1.2 in Xenopus laevis oocytes; format: cell-based; conditions: Hill fit, n ≥ 3, highest tested concentration 50 μM
T1 construct: expressed in transfected cells; host or cells: Xenopus laevis oocytes (cRNA injection)

[3] = molecular target: T2, hNaV1.6 (Homo sapiens, UniProt Q9UQD0); test: Two-electrode voltage clamp, Nav1.6 in Xenopus laevis oocytes; format: cell-based; conditions: two-electrode voltage clamp in Xenopus laevis oocytes, Hill fit, n ≥ 3; highest tested concentration 50 μM
T2 construct: expressed in transfected cells; host or cells: Xenopus laevis oocytes (cRNA injection)
Description: For the expression of NaV channels (hNav1.1, rNaV1.2, rNaV1.3, rNaV1.4, hNaV1.5, hNaV1.6, hNav1.7, and the insect channel BgNaV1) in Xenopus laevis oocytes, the linearized plasmids were transcribed using the T7 or SP6 mMESSAGE-mMACHINE transcription kit (Ambion, Carlsbad, CA, USA). The harvesting of stage V and VI oocytes from an anaesthetized female X. laevis frog was described previously. , Oocytes were injected with 50 nL of cRNA at a concentration of 1 ng/nL using a microinjector (Drummond Scientific, Broomall, PA, USA). The oocytes were incubated in a solution containing 96 mM NaCl, 2 mM KCl, 1.8 mM CaCl2, 2 mM MgCl2, and 5 mM HEPES (pH 7.4), supplemented with 50 mg/L gentamycin sulfate. Two-electrode voltage-clamp recordings were performed at room temperature (18–22 °C) using a Geneclamp 500 amplifier (Molecular Devices, Downingtown, PA, USA) controlled by a pClamp data acquisition system (Axon Instruments, Union City, CA, USA). Whole-cell currents from oocytes were recorded 1–4 days after injection. The bath solution composition was 96 mM NaCl, 2 mM KCl, 1.8 mM CaCl2, 2 mM MgCl2, and 5 mM HEPES (pH 7.4). Voltage and current electrodes were filled with 3 M KCl. The resistances of both electrodes were kept between 0.8 and 1.5 MΩ. The elicited Nav channel currents were filtered at 1 kHz and sampled at 20 kHz by using a four-pole low-pass Bessel filter. Leak subtraction was performed using a −P/4 protocol. For the electrophysiological analysis of toxins, a series of protocols was applied from a holding potential of −90 mV with a start-to-start interval of 0.2 Hz. Sodium current traces were evoked by 100 ms depolarizations to V max (the voltage corresponding to maximum sodium current in control conditions).
To assess the concentration–response relationships, data were fitted with the Hill equation: y = 100/[1 + (EC50/[toxin])^ h ], where y is the amplitude of the toxin-induced effect (y = I 30 ms/I peak where I 30 ms is the current value at 30 ms in the presence of toxin and I peak is the peak current amplitude in control conditions), EC50 is the toxin concentration at half-maximal efficacy, [toxin] is the toxin concentration, and h is the Hill coefficient. Potassium and calcium currents were evoked by a 500 ms depolarization to the voltage corresponding to the maximal activation of the channels in control conditions from a holding potential of −90 mV. Elicited currents were sampled at 1 kHz and filtered at 0.5 kHz. For nAChR experiments, the oocytes were clamped at a holding potential of −70 mV and continuously superfused with ND96 via gravity-fed tubes at 0.1–0.2 mL min^–1, with 5 min incubation times for the bath-applied peptides. ACh was applied via gravity-fed tubes until a peak current amplitude was obtained (1–3 s), with 1–2 min washout periods between applications. The nAChR were gated by a particular time duration pulse of ACh for the respective nAChR subtype at 2 mL min^–1. Data were sampled at 500 Hz and filtered at 200 Hz. ASIC1a currents were measured in ND96 solutions at a pH of 7.4 and 4.5, at a holding potential of −70 mV during 400 s, and the data were filtered at 20 Hz. EnaC currents were measured by clamping oocytes at a holding potential of −60 mV and perfusing with low- (1 mM) and high- (96 mM) sodium ND96. Opioid currents were measured by clamping the potential to −70 mV and changing the perfusion solution from ND96 to high-potassium (HK) solution composed of 96 mM KCl, 2 mM NaCl, 1 mM MgCl2, 1.8 mM CaCl2, and 5 mM HEPES, with a final pH of 7.5. The HK-evoked increase in inward K^+ currents represents a “basal” K^+ current (IK, basal). In the presence of HK, 0.2 μM morphine was applied to oocytes and then washed out by HK. TRPV1 and TRPA1 currents were continuously monitored in a perfusing ND96 solution, following a protocol at −90 mV for 400 s. The sampling rate was set at 100 Hz, and the signals were filtered at 20 Hz. One μM capsaicin and 10 μM capsazepine were used for TRPV1. […]

[4] = molecular target: T3, hNav1.7 (Homo sapiens, UniProt Q15858); test: Two-electrode voltage clamp, Nav1.7 in Xenopus laevis oocytes; format: cell-based; conditions: alpha-1 EC50 75.6 ± 33.9 nM
T3 construct: expressed in transfected cells; host or cells: Xenopus laevis oocytes (cRNA injection)

[5] = molecular target: T4, hNaV1.5 (Homo sapiens, UniProt Q14524); test: Two-electrode voltage clamp, Nav1.5 in Xenopus laevis oocytes; format: cell-based; conditions: ex vivo, two-electrode voltage clamp in Xenopus laevis oocytes, Hill fit, n ≥ 3; highest tested concentration 50 μM
T4 construct: expressed in transfected cells; host or cells: Xenopus laevis oocytes (cRNA injection)

SMILES	EC50 [1] [nM]	EC50 Nav1.2 [2]	EC50 Nav1.6 [3]	times lower activity on Nav1.7 than alpha-1 [4]	EC50 Nav1.5 [5]
CC[C@H](C)[C@@H]1NC(=O)[C@@H](NC(=O)CN)CSSC[C@@H]2NC(=O)[C@@H]3CSSC[C@@H](C(=O)N[C@@H](C)C(=O)N4C[C@H](O)C[C@H]4C(=O)N4C[C@H](O)C[C@H]4C(=O)N[C@@H](CC(N)=O)C(=O)N[C@@H](CCC(N)=O)C(=O)O)NC(=O)[C@H](CCCCN)NC(=O)[C@H](Cc4ccccc4)NC(=O)[C@H](CC(N)=O)NC(=O)[C@H](Cc4c[nH]c5ccccc45)NC(=O)CNC(=O)[C@H](CSSC[C@H](NC(=O)[C@H](Cc4ccccc4)NC(=O)[C@H](CO)NC(=O)CNC(=O)[C@H]([C@@H](C)O)NC(=O)[C@H](C)NC1=O)C(=O)N[C@@H]([C@@H](C)O)C(=O)N[C@@H](CC(C)C)C(=O)N[C@@H](CO)C(=O)N[C@@H](CCCCN)C(=O)NCC(=O)N3)NC(=O)[C@H](CC(N)=O)NC(=O)[C@H](CCCCN)NC(=O)[C@H]([C@@H](C)O)NC2=O [Peptide N27A]	48.3 ± 2.8	activity in the same range as alpha-1	slightly higher activity	lower activity by an order of magnitude	
CC[C@H](C)[C@@H]1NC(=O)[C@@H](NC(=O)CN)CSSC[C@@H]2NC(=O)[C@@H]3CSSC[C@@H](C(=O)N[C@@H](CC(N)=O)C(=O)N4C[C@H](O)C[C@H]4C(=O)N4C[C@H](O)C[C@H]4C(=O)N[C@@H](C)C(=O)N[C@@H](CCC(N)=O)C(=O)O)NC(=O)[C@H](CCCCN)NC(=O)[C@H](Cc4ccccc4)NC(=O)[C@H](CC(N)=O)NC(=O)[C@H](Cc4c[nH]c5ccccc45)NC(=O)CNC(=O)[C@H](CSSC[C@H](NC(=O)[C@H](Cc4ccccc4)NC(=O)[C@H](CO)NC(=O)CNC(=O)[C@H]([C@@H](C)O)NC(=O)[C@H](C)NC1=O)C(=O)N[C@@H]([C@@H](C)O)C(=O)N[C@@H](CC(C)C)C(=O)N[C@@H](CO)C(=O)N[C@@H](CCCCN)C(=O)NCC(=O)N3)NC(=O)[C@H](CC(N)=O)NC(=O)[C@H](CCCCN)NC(=O)[C@H]([C@@H](C)O)NC2=O [Peptide N30A]	138 ± 6.2			lower activity by an order of magnitude	in the same range as alpha-1
